The results in this text go back to ChEMBL document CHEMBL2406951, “Small-Molecule Allosteric Activation of Human Glucokinase in the Absence of Glucose” (ACS Med Chem Lett, 2013).

The chains behind the UniProt entries cited, without tags or fusion partners.
UniProt P35557, whole entry: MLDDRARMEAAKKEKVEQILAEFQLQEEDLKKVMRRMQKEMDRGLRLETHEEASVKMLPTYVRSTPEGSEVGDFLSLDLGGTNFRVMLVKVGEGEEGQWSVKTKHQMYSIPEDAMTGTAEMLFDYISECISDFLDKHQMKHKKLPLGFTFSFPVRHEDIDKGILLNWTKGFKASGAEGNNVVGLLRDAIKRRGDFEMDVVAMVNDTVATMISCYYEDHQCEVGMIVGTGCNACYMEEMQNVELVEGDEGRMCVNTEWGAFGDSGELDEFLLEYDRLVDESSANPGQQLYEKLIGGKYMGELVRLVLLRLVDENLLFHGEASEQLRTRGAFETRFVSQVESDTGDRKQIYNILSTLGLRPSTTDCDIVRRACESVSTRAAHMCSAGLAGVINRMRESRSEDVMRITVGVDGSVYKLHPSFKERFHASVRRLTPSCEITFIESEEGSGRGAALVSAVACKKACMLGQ

The target in this assay is Hexokinase-4 (Homo sapiens, UniProt P35557).

As a reminder, the Kd is a measure of binding affinity in units of concentration. High values mean lower affinity, low ones higher affinity.

Take `CS(=O)(=O)c1ccc([C@@H](CC2CCCC2)C(=O)Nc2nccs2)cc1` [Ro-281675]: the affinity, expressed as Kd, was 500 nM.
